Literature values as cited in patent publication US8691290B2 (priority 2006, dated 2014).

Assays:
[1] = system: prepared peritoneal tissue; details: 10% PVP-I
[2] = not given; remark: listed apart in the source
[3] = 1.25% PVP-I nasal, twice a day for three days, 88 volunteers
[4] = daily application of 10% PVP-I for 2 months

polyvinylpyrolodone-iodine [PVP-I]
iodine absorbed systemically (administered to the nasal cavity): 100%
iodine absorbed systemically (applied to the skin of mammals): less than 0.01%
Growth rate % (control = 100%) ([1]; exposure 1 min): 63%
Growth rate % (control = 100%) ([1]; exposure 30 min): 40%
principal side effects [2, 3]: dryness, itchiness and sneezing
thyroid dysfunction [2, 3]: No thyroid dysfunction was observed
family members with elevated TSH levels [2, 4]: four of seven
goiter induction [2, 4]: did not induce goiter

Where two headings read alike, the source gives them in different places.
